HDAC3 inh – HDAC3 deacetylase inhibitors, primary screen, biochemical, fluorescence, cell-free homogeneous; recombinant HDAC3, fluorogenic peptide/trypsin coupled; inhibition, % at 8.3 µM; actives 0.15% (n = 320,000); AID 2718, 2010; in the data active means inhibition above about 26%, passing the limit was not always enough
ALR H2O2 inh – blocks human ALR sulfhydryl oxidase activity; inhibition, % (no concentration beside the values); hit rate 3.8% among 290,000; purified ALR, DTT oxidation, H2O2 HRP-luminol luminescence; AID 485317; P55789;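 active = mean and each replicate at 75% or more; inconclusive = only one of the two met; inactive = neither met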;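 note: stock transfer was 7.5 nL into about 7.5 µL; 0% = neutral wells and 100% = wells with inactivated enzyme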
MC4R antagonist – MC4R antagonists of cAMP signaling, primary screen, cell-based, TR-FRET, antagonist arm of biased-ligand search; inhibition, % at 6.5 µM; MC4R-expressing cells, MTII-stimulated cAMP, LANCE TR-FRET; actives 0.48% (n = 360,000); AID 540295, 2011;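 active means inhibition above its plate's cutoff, the mean of tested wells on that plate plus 3 SD, cut at about 29% in these data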;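 further: 0% = Melanotan II alone and 100% = Melanotan II plus saturating MCL0020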
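System: U2OS-MC4R stable cell line; Technique: Eu-cAMP/anti-cAMP TR-FRET, emission 671 nm; Repeats: single well per compound; Also added: Melanotan II; Dosing: one concentration, 6.5 µM nominal; Schedule: 30-min compound, 1-h challenge, 1-h detection, room temperature.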
UUG fidelity – modulators of yeast start codon fidelity, primary screen, whole organism, S. cerevisiae, single point, plate reader; activity score, % at 18.7 µM; actives 0.13% (n = 350,000); S. cerevisiae UUG-firefly luciferase reporter, luminescence/redox ratio;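 active = replicate mean at a twofold rise or more, about +100% in these data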;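 also: firefly luciferase made from a UUG start codon reports start codon fidelity; reporter light over untreated wells divided by growth signal over untreated wells; some hits fall short of that in this replicate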
NALP1 yeast inh – NALP1 inflammasome inhibitors in reconstituted yeast, colorimetric, S. cerevisiae, triplicate retest | S. cerevisiae NALP1/ASC/caspase-1 growth, X-gal OD620, 72 h | inhibition, % at 10 µM | actives 0.61% (n = 280,000); in the data active means inhibition mostly above about 24%, no sharp cut-off; inactive means mostly below about 32%
MC4R barr agon – MC4R agonists recruiting beta-arrestin, primary screen, cell-based, luminescence, agonist arm of biased-ligand search; Melanocortin receptor 4 (Homo sapiens), P32245; U2OS MC4R beta-arrestin complementation; percent of melanotan II response, DMSO zero; activation, % at 8.9 µM; actives 0.98% (n = 360,000);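 active means activation above a per-plate cutoff, the mean activation of sample wells on that plate plus 3 SD, cut at about 8% in these data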
Active calls of the source: *; / = no result. This is a sample that favours compounds with a hit; in the whole collection about 4.2% have one here.

Sequences of proteins named here, by UniProt entry; tags and fusion partners are left off.
Melanocortin receptor 4 (Homo sapiens), P32245, UniProt P32245, whole entry, looked up: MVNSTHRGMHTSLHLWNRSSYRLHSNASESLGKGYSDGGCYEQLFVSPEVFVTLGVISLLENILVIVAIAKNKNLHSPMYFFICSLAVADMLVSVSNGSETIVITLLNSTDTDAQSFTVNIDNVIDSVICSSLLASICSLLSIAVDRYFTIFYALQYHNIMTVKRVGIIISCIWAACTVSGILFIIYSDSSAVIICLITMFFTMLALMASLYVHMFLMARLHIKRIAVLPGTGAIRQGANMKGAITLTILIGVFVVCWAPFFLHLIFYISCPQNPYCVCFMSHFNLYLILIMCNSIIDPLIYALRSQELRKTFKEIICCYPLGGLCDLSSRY

(1) CCOC(=O)c1ccc(OC(=O)CCCCCN=C(N)N)cc1
(2) O=C(/C=C/c1cccc([N+](=O)[O-])c1)c1ccco1
(3) O=C(/C=C/c1cccc([N+](=O)[O-])c1)c1ccc([N+](=O)[O-])o1
(4) O=C(/C=C/c1cccc([N+](=O)[O-])c1)Nc1ccccn1
(5) O=C(/C=C/c1cccc([N+](=O)[O-])c1)Nc1cccc(NC(=O)c2ccco2)c1
assay / compound,1,2,3,4,5
HDAC3 inh,93*,-1,7,-12,2
ALR H2O2 inh,0,7,7,10,33
UUG fidelity,-17,-16,-19,-10,/
NALP1 yeast inh,/,47*,/,23*,20
MC4R barr agon,-1,-3,-3,-3,3
MC4R antagonist,3,17,30*,0,2

(6) O=C(/C=C/c1cccc([N+](=O)[O-])c1)N(c1ccccn1)c1ccccn1
(7) COc1cc(C2N(c3ccccc3)CCN2c2ccccc2)cc(OC)c1OC
(8) Cc1cc2nc(-c3cccnc3SCC(=O)NC(C)C)[nH]c2cc1C
(9) COCCOC(=O)CSc1ncccc1-c1nc2cc(C)c(C)cc2[nH]1
(10) O=C(NCC[C@H]1CC[C@H](NS(=O)(=O)Cc2ccccc2)[C@@H](CO)O1)C1CC1
assay / compound,6,7,8,9,10
HDAC3 inh,9,3,4,-10,/
ALR H2O2 inh,-6,99*,-16,98*,/
UUG fidelity,/,-1,-27,-17,-6
NALP1 yeast inh,/,6,9,0,/
MC4R barr agon,0,-2,-3,0,/
MC4R antagonist,0,0,1,13,/

In another format: results already given
Each structure is followed by: HDAC3 inh | ALR H2O2 inh | UUG fidelity | NALP1 yeast inh | MC4R barr agon | MC4R antagonist
2: O=C(/C=C/c1cccc([N+](=O)[O-])c1)c1ccco1
  -1 | 7 | -16 | 47* | -3 | 17
6: O=C(/C=C/c1cccc([N+](=O)[O-])c1)N(c1ccccn1)c1ccccn1
  9 | -6 | / | / | 0 | 0
7: COc1cc(C2N(c3ccccc3)CCN2c2ccccc2)cc(OC)c1OC
  3 | 99* | -1 | 6 | -2 | 0
4: O=C(/C=C/c1cccc([N+](=O)[O-])c1)Nc1ccccn1
  -12 | 10 | -10 | 23* | -3 | 0

Additional entries
(11) CCNc1cc(S(=O)(=O)C(F)(F)F)ccc1N
(12) CCNc1ccc(C(=O)O)cc1N
(13) CCc1ccccc1Nc1ccc(C(=O)O)cc1N
(14) Nc1cc(C(=O)O)ccc1Nc1ccccc1
(15) Cc1cc(S(=O)(=O)Nc2cc(C)c(O)c(C)c2)c(C)s1
assay / compound,11,12,13,14,15
HDAC3 inh,6,-14,-1,-9,2
ALR H2O2 inh,/,98*,99*,/,77*
UUG fidelity,-22,/,-15,-19,-2
NALP1 yeast inh,36,6,6,2,40*
MC4R barr agon,-1,1,0,1,-1
MC4R antagonist,8,18,23,7,-1

(16) Cc1cc(S(=O)(=O)Nc2ccc3ccccc3c2)c(C)s1
(17) CNS(=O)(=O)c1ccc2ccccc2c1
(18) Cc1ccc(S(=O)(=O)Nc2ccc3ccccc3c2)cc1
(19) Cc1cc(O)cc(C)c1NS(=O)(=O)c1ccc2ccccc2c1
(20) O=C(Cc1ccccc1)N[C@@H]1CC[C@@H](CC(=O)N2CCOCC2)O[C@@H]1CO
assay / compound,16,17,18,19,20
HDAC3 inh,6,-4,/,10,/
ALR H2O2 inh,5,-9,/,79*,/
UUG fidelity,11,/,7,-11,14
NALP1 yeast inh,6,32,/,16,/
MC4R barr agon,8.8*,1,9.4*,-2,/
MC4R antagonist,-6,6,2,9,/

(21) O=C(Nc1ccc(Cl)cc1)N[C@@H]1CC[C@@H](CCn2cc(C3(O)CCCC3)nn2)O[C@@H]1CO
(22) COc1cccc(-c2ccc3c(c2)[C@H]2[C@H](CCN2C(=O)c2cccc(F)c2)[C@H](CO)N3)c1
(23) CC(C)c1cc(C(=O)N/N=C/c2ccco2)n[nH]1
(24) CCCC#Cc1ccc([C@H]2[C@H](CO)N3CCCCN(CC4CC4)C[C@@H]23)cc1
(25) CC(=O)Nc1ccc(C2=NN(C)C(=NCc3ccccc3)SC2)cc1
assay / compound,21,22,23,24,25
HDAC3 inh,/,/,7,/,12
ALR H2O2 inh,/,/,83*,/,99*
UUG fidelity,-18,4,-22,-6,/
NALP1 yeast inh,/,/,38,/,2
MC4R barr agon,/,/,-3,/,-2
MC4R antagonist,/,/,1,/,-9

(26) COc1cc(C)nc(NS(=O)(=O)c2ccccc2Cl)n1
(27) Cc1cc(NN)nc(NS(=O)(=O)c2ccccc2Cl)n1
(28) CCC(=O)N(C)C[C@H]1Oc2ncc(C#CCc3ccccc3)cc2C(=O)N([C@@H](C)CO)C[C@@H]1C
(29) CC(C)(C)OC(=O)N1CCC(NC(=O)c2[nH]cnc2C(=O)Nc2ccccc2)CC1
(30) CC(C)(C)OC(=O)N1CCC(NC(=O)c2[nH]cnc2C(=O)Nc2ccccc2F)CC1
assay / compound,26,27,28,29,30
HDAC3 inh,-3,4,/,7,/
ALR H2O2 inh,-7,36,/,-1,/
UUG fidelity,10,/,4,-9,4
NALP1 yeast inh,39*,-1,/,/,/
MC4R barr agon,2,-1,/,8.5*,8.3*
MC4R antagonist,4,15,/,3,8

(31) CN(C)C(=O)[C@H]1[C@H](CO)[C@H]2Cn3c(ccc(C4=CCCC4)c3=O)[C@H]2N1Cc1ccccn1
(32) Cc1ccc(CNc2cc(C(=O)O)ccc2C)s1
(33) CCCC(=O)Nc1ccc(N2CCOCC2)cc1
(34) CC(=O)Nc1ccc(NCc2ccc(C)s2)cc1
(35) CCCC(=O)Nc1ccc(NCc2ccc(C)s2)cc1
assay / compound,31,32,33,34,35
HDAC3 inh,/,1,2,-1,-2
ALR H2O2 inh,/,/,43,96*,91*
UUG fidelity,-14,35,-8,-3,4
NALP1 yeast inh,/,0,4,14,11
MC4R barr agon,/,1,0,0,0
MC4R antagonist,/,18,0,-2,2

(36) COc1cc(-c2c(C#N)c(N)nc3[nH]c(=S)[nH]c(=O)c23)ccc1O
(37) COc1cc(-c2c(C#N)c(N)nc3c2CCCC3)ccc1O
(38) O=C(Nc1nc(=O)n(C(=O)c2cccc(C(F)(F)F)c2)s1)c1ccccc1
(39) C[C@H](CO)N1C[C@H](C)[C@H](CN(C)C(=O)Nc2ccc3c(c2)OCO3)Oc2ncc(C#CCN(C)C)cc2C1=O
(40) COc1ccc(-c2coc3cc(O)ccc3c2=O)cc1O
assay / compound,36,37,38,39,40
HDAC3 inh,5,0,7,/,8
ALR H2O2 inh,99*,22,97*,/,77*
UUG fidelity,8,6,-24,20,-37
NALP1 yeast inh,-4,17,/,/,-11
MC4R barr agon,0,-1,-1,/,0
MC4R antagonist,8,6,10,/,9

(41) O=c1c(-c2ccc(O)cc2)coc2cc(O)cc(O)c12
(42) COc1cc(O)cc2occ(-c3ccc(O)cc3)c(=O)c12
(43) O=C(N[C@@H]1CC[C@@H](CC(=O)N2CCc3ccccc3C2)O[C@H]1CO)C1CCOCC1
(44) COc1ccc(-c2cnc3c(c2)C(=O)N([C@@H](C)CO)C[C@H](C)[C@@H](CN(C)Cc2cccnc2)O3)cc1
(45) O=C(O)c1ccc(Sc2ccccn2)c([N+](=O)[O-])c1
assay / compound,41,42,43,44,45
HDAC3 inh,7,-4,/,/,2
ALR H2O2 inh,57,98*,/,/,-2
UUG fidelity,-31,-18,1,2,-16
NALP1 yeast inh,-6,0,/,/,10
MC4R barr agon,-1,0,/,/,1
MC4R antagonist,-17,10,/,/,2

(46) O=[N+]([O-])c1cc(C(F)(F)F)ccc1Sc1ccccn1
(47) O=C(CCl)Nc1cc(-c2ccccc2)nn1-c1ccccc1
(48) Nc1cccc2c1C(=O)N(C(=O)/C=C/c1cccc(F)c1)C2=O
(49) CC(C)(c1ccc(O)cc1)c1ccc(O)cc1
(50) CC(C)(c1ccc(O)cc1)c1ccc(O)c(C(=O)O)c1
assay / compound,46,47,48,49,50
HDAC3 inh,3,-1,0,3,/
ALR H2O2 inh,2,98*,98*,91*,/
UUG fidelity,/,-19,/,-7,-25
NALP1 yeast inh,10,77*,39,31,/
MC4R barr agon,8.6*,-2,-1,-1,-1
MC4R antagonist,-5,9,3,-1,6
